Measurements: ChEMBL document CHEMBL4007512, “Discovery of Selective Phosphodiesterase 1 Inhibitors with Memory Enhancing Properties” (J Med Chem, 2017)

The chains behind the UniProt entries cited, without tags or fusion partners. Where a name states a change or a piece, a line headed by the entry shows the natural chain unless it says otherwise.
UniProt Q01064: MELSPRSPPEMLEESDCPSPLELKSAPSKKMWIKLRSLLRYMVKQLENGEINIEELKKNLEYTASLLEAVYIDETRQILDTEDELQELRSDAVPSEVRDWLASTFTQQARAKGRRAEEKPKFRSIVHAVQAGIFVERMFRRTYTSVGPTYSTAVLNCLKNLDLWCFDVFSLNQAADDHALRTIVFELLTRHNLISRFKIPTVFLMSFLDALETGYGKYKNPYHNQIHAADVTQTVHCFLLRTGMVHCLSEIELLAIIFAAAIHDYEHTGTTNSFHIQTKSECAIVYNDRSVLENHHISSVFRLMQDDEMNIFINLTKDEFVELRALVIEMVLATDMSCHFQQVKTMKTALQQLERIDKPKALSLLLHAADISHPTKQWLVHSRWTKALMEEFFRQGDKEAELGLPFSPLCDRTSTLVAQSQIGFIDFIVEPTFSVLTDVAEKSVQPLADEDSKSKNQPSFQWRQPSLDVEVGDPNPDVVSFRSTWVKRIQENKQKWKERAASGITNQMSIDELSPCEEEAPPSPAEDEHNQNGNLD

Target: Dual specificity calcium/calmodulin-dependent 3',5'-cyclic nucleotide phosphodiesterase 1B (Homo sapiens, UniProt Q01064)
Assay: Inhibition of PDE1B (unknown origin)

An IC50 of 0.058 nM was found for `CN1C(=O)c2c(nn(Cc3ccc(-c4cccc(F)n4)cc3)c2Nc2ccccc2)N2C1=N[C@@H]1CCC[C@@H]12` [LENRISPODUN PHOSPHATE] in this work.
